According to ChEMBL document CHEMBL3588773, “Volume of Distribution in Drug Design” (J Med Chem, 2015):

Assays:
Rattus norvegicus [1] = organism: Rattus norvegicus; experiment: Half life in bile duct cannulated rat; conditions: in vivo
Rattus norvegicus [2] = organism: Rattus norvegicus; experiment: Half life in intact rat; conditions: in vivo

Compound: CO[C@]12CC[C@@]3(CC1[C@](C)(O)CCc1cccs1)[C@H]1Cc4ccc(O)c5c4[C@@]3(CCN1CC1CC1)[C@H]2O5 (some centres not stated)
- t1/2 (Rattus norvegicus [1]): 3.5 h
- t1/2 (Rattus norvegicus [2]): 7 h
